# BindingDB's records for patent US9273014 (Bristol-Myers Squibb Co., 2016)
# The chains behind the UniProt entries cited, without tags or fusion partners.
# UniProt P46531, whole entry: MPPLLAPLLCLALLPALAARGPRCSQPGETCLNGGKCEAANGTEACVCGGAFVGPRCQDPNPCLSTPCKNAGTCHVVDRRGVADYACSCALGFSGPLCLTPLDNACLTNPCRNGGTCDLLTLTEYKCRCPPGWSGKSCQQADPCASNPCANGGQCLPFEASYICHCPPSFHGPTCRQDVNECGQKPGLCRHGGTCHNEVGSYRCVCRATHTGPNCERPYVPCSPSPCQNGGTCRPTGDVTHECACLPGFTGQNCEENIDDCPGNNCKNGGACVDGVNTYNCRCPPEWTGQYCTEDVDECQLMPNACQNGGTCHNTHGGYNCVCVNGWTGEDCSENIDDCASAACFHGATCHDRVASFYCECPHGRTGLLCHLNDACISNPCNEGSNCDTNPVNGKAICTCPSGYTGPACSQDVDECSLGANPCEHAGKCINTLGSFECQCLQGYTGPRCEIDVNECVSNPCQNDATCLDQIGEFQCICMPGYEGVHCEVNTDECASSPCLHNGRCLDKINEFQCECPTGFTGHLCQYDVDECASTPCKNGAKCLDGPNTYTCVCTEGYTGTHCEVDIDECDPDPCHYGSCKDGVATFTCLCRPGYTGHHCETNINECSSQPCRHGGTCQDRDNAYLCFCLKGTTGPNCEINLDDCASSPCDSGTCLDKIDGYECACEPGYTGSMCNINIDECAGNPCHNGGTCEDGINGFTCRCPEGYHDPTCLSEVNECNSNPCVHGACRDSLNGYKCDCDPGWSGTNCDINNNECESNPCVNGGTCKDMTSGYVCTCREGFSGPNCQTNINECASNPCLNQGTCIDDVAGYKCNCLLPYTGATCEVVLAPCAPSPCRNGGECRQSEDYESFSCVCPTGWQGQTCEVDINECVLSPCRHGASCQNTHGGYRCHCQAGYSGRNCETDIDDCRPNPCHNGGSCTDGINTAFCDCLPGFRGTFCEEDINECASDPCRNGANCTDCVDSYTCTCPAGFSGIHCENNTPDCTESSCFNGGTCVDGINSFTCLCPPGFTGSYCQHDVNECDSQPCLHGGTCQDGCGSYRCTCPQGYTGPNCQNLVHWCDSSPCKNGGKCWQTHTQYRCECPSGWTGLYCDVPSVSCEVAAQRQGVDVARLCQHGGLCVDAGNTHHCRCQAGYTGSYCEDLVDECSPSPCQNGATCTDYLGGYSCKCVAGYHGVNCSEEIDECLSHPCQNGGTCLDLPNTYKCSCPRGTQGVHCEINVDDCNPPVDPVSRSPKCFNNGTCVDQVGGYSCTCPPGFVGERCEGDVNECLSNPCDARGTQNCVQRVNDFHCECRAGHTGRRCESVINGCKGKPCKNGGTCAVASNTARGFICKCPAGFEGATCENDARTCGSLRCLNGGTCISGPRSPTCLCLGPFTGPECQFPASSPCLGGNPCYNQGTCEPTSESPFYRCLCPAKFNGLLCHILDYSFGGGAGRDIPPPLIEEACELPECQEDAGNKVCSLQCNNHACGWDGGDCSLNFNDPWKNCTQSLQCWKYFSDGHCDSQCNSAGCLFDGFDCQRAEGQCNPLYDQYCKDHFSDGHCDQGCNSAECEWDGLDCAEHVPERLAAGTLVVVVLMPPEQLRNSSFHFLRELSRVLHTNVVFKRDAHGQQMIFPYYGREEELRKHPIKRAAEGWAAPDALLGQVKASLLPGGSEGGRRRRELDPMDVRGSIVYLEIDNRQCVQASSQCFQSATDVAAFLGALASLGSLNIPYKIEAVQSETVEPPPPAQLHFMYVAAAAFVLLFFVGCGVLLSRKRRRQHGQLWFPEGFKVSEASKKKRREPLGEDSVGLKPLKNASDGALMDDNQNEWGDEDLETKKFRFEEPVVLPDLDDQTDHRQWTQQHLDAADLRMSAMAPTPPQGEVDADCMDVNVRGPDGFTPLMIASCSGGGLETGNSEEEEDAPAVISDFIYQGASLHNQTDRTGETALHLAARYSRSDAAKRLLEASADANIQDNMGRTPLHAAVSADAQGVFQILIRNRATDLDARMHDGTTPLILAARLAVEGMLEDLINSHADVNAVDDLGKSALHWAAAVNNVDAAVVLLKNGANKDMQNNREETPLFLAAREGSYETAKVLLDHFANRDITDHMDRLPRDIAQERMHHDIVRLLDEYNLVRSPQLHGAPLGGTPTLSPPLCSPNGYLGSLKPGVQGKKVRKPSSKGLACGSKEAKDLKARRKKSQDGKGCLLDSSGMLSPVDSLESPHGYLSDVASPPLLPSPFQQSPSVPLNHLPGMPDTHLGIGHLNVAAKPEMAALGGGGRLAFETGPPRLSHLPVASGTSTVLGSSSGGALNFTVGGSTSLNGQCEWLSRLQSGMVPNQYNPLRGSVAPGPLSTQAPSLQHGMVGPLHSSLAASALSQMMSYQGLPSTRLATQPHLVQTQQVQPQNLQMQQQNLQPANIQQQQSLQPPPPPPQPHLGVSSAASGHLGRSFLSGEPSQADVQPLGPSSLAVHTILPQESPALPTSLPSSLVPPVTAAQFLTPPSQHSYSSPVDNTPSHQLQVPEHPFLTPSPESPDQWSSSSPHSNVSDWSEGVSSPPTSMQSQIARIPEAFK
# UniProt Q9UM47, whole entry: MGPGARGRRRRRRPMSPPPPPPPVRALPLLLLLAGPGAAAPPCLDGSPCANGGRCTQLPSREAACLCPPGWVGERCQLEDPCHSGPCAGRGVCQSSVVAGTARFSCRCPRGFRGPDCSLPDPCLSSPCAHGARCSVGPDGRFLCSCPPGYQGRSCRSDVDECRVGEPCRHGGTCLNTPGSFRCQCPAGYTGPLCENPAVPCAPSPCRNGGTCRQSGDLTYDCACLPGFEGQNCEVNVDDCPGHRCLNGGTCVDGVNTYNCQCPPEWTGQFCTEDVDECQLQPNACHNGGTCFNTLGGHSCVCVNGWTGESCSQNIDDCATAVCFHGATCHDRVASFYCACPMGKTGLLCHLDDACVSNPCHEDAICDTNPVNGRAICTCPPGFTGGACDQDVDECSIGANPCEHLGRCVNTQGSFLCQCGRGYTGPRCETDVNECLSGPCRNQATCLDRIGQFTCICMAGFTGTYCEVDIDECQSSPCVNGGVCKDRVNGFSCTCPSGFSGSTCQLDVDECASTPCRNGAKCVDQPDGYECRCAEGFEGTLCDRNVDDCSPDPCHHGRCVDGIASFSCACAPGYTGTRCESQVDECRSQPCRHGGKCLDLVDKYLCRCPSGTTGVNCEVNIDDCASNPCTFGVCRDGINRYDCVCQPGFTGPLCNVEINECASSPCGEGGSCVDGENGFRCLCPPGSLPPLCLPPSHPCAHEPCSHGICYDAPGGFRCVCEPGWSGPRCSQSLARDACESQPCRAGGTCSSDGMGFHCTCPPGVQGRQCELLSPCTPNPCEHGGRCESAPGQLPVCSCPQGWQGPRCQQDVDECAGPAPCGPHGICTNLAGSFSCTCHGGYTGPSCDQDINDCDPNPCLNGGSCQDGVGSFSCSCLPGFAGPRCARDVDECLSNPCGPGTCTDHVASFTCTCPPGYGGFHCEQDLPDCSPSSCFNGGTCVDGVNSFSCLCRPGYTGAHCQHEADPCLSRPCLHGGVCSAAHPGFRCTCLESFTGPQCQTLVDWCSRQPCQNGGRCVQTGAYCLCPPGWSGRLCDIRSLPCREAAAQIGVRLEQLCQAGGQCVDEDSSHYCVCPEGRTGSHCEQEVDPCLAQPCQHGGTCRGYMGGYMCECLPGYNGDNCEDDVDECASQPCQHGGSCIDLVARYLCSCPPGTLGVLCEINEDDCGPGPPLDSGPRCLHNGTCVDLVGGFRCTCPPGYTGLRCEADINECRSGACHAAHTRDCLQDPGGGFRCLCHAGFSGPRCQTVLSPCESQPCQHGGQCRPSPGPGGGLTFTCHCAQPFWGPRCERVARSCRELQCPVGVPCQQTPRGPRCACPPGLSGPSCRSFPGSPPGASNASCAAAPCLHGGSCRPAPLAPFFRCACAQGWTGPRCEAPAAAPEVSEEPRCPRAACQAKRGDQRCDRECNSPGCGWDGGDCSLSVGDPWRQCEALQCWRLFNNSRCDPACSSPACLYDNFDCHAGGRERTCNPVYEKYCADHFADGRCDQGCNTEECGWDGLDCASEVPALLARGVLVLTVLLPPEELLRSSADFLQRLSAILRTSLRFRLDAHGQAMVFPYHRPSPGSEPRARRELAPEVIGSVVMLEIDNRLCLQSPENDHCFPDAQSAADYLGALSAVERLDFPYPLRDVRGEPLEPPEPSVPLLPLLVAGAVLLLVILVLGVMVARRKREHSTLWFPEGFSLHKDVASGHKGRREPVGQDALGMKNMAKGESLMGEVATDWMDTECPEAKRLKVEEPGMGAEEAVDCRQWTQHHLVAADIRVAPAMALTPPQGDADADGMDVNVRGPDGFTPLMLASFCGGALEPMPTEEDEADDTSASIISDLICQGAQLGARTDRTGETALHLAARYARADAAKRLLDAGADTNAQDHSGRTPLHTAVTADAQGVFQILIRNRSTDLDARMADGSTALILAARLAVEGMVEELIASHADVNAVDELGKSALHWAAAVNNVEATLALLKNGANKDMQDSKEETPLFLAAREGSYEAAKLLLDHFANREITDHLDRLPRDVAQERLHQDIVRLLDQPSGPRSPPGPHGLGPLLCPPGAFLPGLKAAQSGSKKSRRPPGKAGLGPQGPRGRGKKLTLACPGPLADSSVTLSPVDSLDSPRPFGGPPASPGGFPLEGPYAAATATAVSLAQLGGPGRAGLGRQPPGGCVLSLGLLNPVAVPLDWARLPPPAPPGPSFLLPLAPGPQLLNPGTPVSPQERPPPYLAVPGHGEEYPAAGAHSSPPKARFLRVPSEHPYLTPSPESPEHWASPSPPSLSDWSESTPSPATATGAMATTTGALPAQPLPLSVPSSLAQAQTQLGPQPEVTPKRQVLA
# Target: Neurogenic locus notch homolog protein 1 (Homo sapiens, UniProt P46531)
# Test: Biological Assay
row,Structure (SMILES),IC50
1,"Cc1cccc(C2=N[C@H](NC(=O)[C@H](CCC(F)(F)F)[C@H](CCC(F)(F)F)C(N)=O)C(=O)Nc3c2cccc3C(F)(F)F)c1 [US9273014, 11]",8.2 nM
2,"CC(C)c1cccc2c1NC(=O)[C@@H](NC(=O)[C@H](CCC(F)(F)F)[C@H](CCC(F)(F)F)C(N)=O)N=C2c1ccccc1 [US9273014, 13]",3.4 nM
3,"COc1cccc2c1NC(=O)[C@@H](NC(=O)[C@H](CCC(F)(F)F)[C@H](CCC(F)(F)F)C(N)=O)N=C2c1cccc(C)c1 [US9273014, 29]",3.9 nM
4,"NC(=O)[C@@H](CCC(F)(F)F)[C@@H](CCC(F)(F)F)C(=O)N[C@H]1N=C(c2ccc(CO)cc2)c2ccccc2NC1=O [US9273014, 30]",4.8 nM
5,"COc1cccc2c1NC(=O)[C@@H](NC(=O)[C@H](CCC(F)(F)F)[C@H](CCC(F)(F)F)C(N)=O)N=C2c1ccc(Cl)cn1 [US9273014, 34]",4.8 nM

# Target: Neurogenic locus notch homolog protein 3 (Human, UniProt Q9UM47)
# Test: Biological Assay
row,Structure (SMILES),IC50
1,"NC(=O)[C@@H](CCC(F)(F)F)[C@@H](CCC(F)(F)F)C(=O)N[C@H]1N=C(c2ccc(CO)cc2)c2ccccc2NC1=O [US9273014, 30]",7.9 nM
